Article PMC2911657 (The Journal of Cell Biology, 2010)

Chains of the proteins cited; added tags and fusions are not shown.
UniProt Q96GD4, whole entry: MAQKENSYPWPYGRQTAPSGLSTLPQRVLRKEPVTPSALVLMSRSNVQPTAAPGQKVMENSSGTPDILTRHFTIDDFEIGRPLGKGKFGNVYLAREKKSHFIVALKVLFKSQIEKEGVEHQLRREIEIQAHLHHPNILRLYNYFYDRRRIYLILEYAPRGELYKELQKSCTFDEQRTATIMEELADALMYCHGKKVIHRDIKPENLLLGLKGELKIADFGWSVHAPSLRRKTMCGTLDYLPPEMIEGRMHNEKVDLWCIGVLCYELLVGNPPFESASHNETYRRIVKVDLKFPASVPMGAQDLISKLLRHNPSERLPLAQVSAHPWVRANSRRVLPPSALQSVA

What was measured:
HeLa cells [1] = experiment: Cytokinesis, time-lapse experiment; assay type: cell-based, human
MPS1 [2] = target: T1, MPS1 (Homo sapiens, UniProt P33981); settings: 0.5 µM
T1 sequence (P33981 1-857): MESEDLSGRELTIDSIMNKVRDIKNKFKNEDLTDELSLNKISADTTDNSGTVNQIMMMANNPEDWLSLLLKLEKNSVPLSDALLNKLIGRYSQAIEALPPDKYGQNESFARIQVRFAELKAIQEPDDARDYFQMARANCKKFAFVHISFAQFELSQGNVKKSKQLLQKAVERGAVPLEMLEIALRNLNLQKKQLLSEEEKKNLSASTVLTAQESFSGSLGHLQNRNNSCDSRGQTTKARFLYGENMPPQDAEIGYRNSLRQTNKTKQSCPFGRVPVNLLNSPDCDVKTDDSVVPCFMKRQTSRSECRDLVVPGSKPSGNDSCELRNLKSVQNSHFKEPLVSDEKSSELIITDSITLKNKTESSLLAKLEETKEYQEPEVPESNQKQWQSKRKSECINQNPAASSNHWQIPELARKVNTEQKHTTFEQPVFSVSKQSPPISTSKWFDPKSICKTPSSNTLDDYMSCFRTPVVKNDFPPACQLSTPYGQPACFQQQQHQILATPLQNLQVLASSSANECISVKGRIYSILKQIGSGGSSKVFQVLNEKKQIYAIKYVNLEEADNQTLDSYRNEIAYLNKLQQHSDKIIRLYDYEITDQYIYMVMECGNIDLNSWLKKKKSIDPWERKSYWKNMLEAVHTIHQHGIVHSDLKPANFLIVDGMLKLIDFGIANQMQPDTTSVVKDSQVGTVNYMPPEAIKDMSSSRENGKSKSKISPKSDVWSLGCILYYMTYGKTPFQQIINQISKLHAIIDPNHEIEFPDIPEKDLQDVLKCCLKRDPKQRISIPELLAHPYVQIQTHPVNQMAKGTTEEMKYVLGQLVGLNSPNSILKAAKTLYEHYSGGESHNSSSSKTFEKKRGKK

[3] = tested on: P-S10-H3 (AURORA B substrate); experiment: P-S10-H3 levels by Western blotting in mitotic HeLa cell lysates; assay type: cell-based, human
MPS1 [4] = target: T1, MPS1; experiment: Kinetochore localization of MPS1, immunofluorescence; assay type: cell-based; settings: 0.5 µM; nocodazole
HeLa cells [5] = experiment: Spindle checkpoint: duration of mitotic arrest, time-lapse video microscopy; assay type: cell-based, human; settings: 0.33 µM or 3.3 µM nocodazole
[6] = target: human AURORA B1–344–INCENP835–903 complex (Homo sapiens, UniProt Q96GD4); experiment: In vitro kinase assay on AURORA B–INCENP complex, substrate histone H3; assay type: biochemical
[7] = tested on: P-S10-H3 (AURORA B substrate); settings: immunofluorescence

SMILES: c1nc2nc(Nc3ccc(N4CCOCC4)cc3)nc(NC3CCCCC3)c2[nH]1 [reversine]
- concentration range in which cytokinesis is impaired (HeLa cells [1]): 2 to 5 µM
- inhibition of MPS1 autophosphorylation (MPS1 [2]): completely inhibits
- concentration inhibiting P-S10-H3 [3]: 2–5 µM
- MPS1 kinetochore staining (MPS1 [4]): strong kinetochore staining
- concentration at which spindle checkpoint override is complete (HeLa cells [5]): 1.0 µM
- concentration above which AURORA B P-T232 phosphorylation is affected (AURORA B (P-T232)): above 2 µM
- AURORA B IC50 above the IC50 of hesperadin [6]: ~30 fold
- concentration above which P-S10-H3 signal is no longer visible [7]: > 5 µM
